# Laboratory results taken from paper PMC5021139 (Journal of Neuroendocrinology, 2016).
# Protein sequences, listed by entry. Tags and fused reporters are not part of them. Lines headed by an entry give the natural chain unless they say otherwise; changes in a name come on top.
# UniProt P30559: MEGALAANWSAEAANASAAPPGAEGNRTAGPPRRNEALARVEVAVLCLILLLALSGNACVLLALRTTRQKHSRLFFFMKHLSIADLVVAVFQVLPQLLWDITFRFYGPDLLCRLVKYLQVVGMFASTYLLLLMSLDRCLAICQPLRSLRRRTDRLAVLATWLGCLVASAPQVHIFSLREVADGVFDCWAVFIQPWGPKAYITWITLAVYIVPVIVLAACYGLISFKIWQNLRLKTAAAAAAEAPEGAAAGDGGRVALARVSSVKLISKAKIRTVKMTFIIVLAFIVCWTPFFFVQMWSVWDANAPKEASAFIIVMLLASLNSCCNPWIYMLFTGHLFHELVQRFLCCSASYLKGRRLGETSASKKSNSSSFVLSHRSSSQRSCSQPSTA
# Key:
# [1] = target: T1, human oxytocin receptor (hOXTR) (Homo sapiens, UniProt P30559); conditions: OXTR/Gq, carbetocin vs oxytocin
# [2] = target: T1, human oxytocin receptor (hOXTR); assay: cell-based
smiles,measurement,setting,value
"CC[C@H](C)[C@@H]1NC(=O)[C@H](Cc2ccc(OC)cc2)NC(=O)CCCSC[C@@H](C(=O)N2CCC[C@H]2C(=O)N[C@@H](CC(C)C)C(=O)NCC(N)=O)NC(=O)[C@H](CC(N)=O)NC(=O)[C@H](CCC(N)=O)NC1=O [carbetocin, deamino‐1‐monocarba‐(2‐O‐methyltyrosine)‐oxytocin]",EC50 right-shift compared to oxytocin,[1],five‐fold
same,EC50,[2],48.8 ± 16.1 nM
